pEC50: −log10 of the molar value.
Molecular target: T1, human 5-HT2C receptor (Homo sapiens, UniProt P28335)
T1 construct: expressed in transfected cells
Assay: Calcium mobilization in response to 5-HT2C receptor agonists (FLIPR)
Assay type: cell-based
Conditions: CHO cells stably expressing human 5-HT2C receptor, Fluo-3 calcium; read-out: EC50, reference compounds

Sequences of proteins named here, by UniProt entry; tags and fusion partners are left off. Residues count along the entry.
UniProt P28335, 33-458: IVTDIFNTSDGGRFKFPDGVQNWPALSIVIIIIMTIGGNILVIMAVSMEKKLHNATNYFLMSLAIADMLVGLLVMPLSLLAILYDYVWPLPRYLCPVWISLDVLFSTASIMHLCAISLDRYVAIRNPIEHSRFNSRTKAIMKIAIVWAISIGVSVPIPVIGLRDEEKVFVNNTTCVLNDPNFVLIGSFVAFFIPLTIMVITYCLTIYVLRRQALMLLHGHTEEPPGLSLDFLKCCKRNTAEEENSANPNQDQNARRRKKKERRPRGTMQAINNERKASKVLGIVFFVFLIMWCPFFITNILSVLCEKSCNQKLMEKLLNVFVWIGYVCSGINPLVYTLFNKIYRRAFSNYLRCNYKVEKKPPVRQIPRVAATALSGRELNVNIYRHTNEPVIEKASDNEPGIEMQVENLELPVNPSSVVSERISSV

In the case of “1-(2,5-dimethoxy-4-iodophenyl)isopropylamine [DOI, reference compound]”, the pEC50 was 9.30.
